The target of this assay is T1, cell surface expressed MET (Homo sapiens, UniProt P08581).
T1 construct: cell lines expressing wild-type MET such as A549 and U87MG cells; endogenous in cells; host or cells: A549
The experiment in a line: FACS competition with Alexa-647-labeled Ab235 on A549 cells. As to conditions: unlabeled antibody against Alexa-647-labeled Ab235. Type of assay: binding. On the procedure: Antibodies were labeled with Alexa 647 (Invitrogen) according to the manufacturer's instructions. A549 cells were removed from T175 cells with 10 mL of 2 mM EDTA in PBS and the flask was rinsed with 5 mL of PBS. The cells were spun down at 1,200 RPM for 3 minutes. The cells were resuspended in pre-chilled FACS buffer and the cells were counted. The cells were then diluted to 1×10^6 cells/mL and incubated in FACS buffer on ice for 1 hour. 100 μL of cells were transferred to wells of U-Bottom 96 well plate and cells were pelleted at 1,200 rpm for 3 minutes and the buffer was discarded. The antibodies (600 nM initial concentration) were diluted in FACS buffer and Alexa-647-labeled antibodies were diluted to a final concentration of 6 nM. 25 μL of the diluted 6 nM Alexa-647-labeled antibody, and 25 μL of the unlabeled diluted antibody at varying concentrations was added to each well and the cells were incubated on ice for 4 hours to allow antibody binding to reach equilibrium. The cells were pelleted at 1,200 rpm for 3 minutes and the buffer was discarded. Next, the cells were washed with 200 μL of FACS buffer four times (spin at 1,200 rpm for 3 minutes at 4° C.). […] The mean fluorescence intensity of each point was plotted using specific binding program with GraphPad Prism software, and binding affinity was calculated.

B1: Ab240: control anti-MET antibody that binds the IgG domains of MET; VL SEQ ID NO: 62, VH SEQ ID NO: 71 (antibody, V domains shown)
VH: QVQLKESGPGLVQPSQTLSLTCSVSGLSLTTNSVHWIRQPPGRGLEWMGVIWGDGSTDYNSALKSRLTISRDTSRSQVFLKMNSLQTDDTAIYFCARDPYQNYFDYWGQGVKVTVSS
VL: DIQMTQTPFYMPASLGERVTISCRASQGISKYLNWYQQKPDGTIKTLIYYTSNLQSGVPSSALKSRLTISRDTSRSQVFLKMNSLQTDDTAIYFCARDPYQNYFDYWGQGVKVTVSS
On to B1, for which the “inhibition of the binding of labeled Ab235 to cell surface expressed MET” value was “did not inhibit”.

These data come from patent US11884734B2, “Anti-MET antibodies and methods of use thereof” (Celldex Therapeutics, Inc., priority 2015, dated 2024).
